Reference: publication PMC5645250 (Cancer research, 2017)

Amino acid sequences for entries named in this document (tags omitted).
UniProt P03372, whole entry D538G: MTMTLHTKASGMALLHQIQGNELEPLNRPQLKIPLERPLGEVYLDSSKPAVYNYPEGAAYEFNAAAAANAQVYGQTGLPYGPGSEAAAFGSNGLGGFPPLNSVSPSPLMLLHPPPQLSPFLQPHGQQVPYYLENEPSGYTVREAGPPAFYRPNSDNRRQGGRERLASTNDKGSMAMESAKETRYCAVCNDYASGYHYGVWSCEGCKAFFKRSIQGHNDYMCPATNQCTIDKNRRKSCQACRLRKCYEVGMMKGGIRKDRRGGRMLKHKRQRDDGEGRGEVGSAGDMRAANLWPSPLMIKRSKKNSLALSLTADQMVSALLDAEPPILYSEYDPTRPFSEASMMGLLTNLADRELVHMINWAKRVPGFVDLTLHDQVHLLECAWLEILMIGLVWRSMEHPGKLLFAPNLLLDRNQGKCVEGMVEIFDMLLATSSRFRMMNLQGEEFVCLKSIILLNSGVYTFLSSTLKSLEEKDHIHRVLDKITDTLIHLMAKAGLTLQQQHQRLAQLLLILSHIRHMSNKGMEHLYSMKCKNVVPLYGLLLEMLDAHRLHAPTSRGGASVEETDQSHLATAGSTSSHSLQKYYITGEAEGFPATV
UniProt P03372, whole entry: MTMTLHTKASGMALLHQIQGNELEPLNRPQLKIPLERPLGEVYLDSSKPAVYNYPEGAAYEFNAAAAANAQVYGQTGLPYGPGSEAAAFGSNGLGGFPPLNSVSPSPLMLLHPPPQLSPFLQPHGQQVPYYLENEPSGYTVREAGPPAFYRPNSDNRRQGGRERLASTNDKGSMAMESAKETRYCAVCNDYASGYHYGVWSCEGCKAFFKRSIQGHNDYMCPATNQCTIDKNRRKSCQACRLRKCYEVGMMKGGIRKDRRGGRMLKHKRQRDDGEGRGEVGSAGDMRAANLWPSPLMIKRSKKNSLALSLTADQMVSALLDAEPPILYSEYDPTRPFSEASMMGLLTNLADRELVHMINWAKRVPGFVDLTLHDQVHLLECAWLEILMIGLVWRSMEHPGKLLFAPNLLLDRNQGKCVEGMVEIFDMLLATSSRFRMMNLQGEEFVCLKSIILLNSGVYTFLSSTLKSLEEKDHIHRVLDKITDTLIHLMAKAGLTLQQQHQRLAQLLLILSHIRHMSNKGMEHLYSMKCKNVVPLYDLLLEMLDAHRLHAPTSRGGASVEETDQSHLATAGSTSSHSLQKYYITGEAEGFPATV
UniProt P03372, whole entry Y537S: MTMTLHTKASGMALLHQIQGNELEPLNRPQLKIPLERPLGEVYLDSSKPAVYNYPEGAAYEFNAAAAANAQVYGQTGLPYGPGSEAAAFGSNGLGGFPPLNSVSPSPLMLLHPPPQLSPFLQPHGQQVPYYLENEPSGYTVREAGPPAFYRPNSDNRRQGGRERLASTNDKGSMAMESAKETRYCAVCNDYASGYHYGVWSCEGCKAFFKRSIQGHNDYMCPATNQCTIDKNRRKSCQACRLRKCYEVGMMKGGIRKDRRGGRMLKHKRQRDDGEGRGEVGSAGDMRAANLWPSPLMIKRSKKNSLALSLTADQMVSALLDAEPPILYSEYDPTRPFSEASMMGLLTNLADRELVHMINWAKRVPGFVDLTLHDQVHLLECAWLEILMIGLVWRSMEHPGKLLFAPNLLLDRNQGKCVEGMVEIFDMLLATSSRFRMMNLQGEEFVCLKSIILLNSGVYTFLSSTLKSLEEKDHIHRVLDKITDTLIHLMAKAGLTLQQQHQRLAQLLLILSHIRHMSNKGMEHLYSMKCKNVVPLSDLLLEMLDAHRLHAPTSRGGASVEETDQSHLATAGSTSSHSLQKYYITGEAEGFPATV

How the values were obtained:
Test in all cases: competitive radiometric binding, tritiated E2
WT-ER (ERα) [1] = molecular target: WT-ER (ERα) (Homo sapiens, UniProt P03372, D538G)
WT-ER (ERα) [2] = molecular target: WT-ER (ERα) (Homo sapiens, UniProt P03372)
WT-ER (ERα) [3] = molecular target: WT-ER (ERα) (Homo sapiens, UniProt P03372, Y537S)

Ki (WT-ER (ERα) [1]): 7.52 ± 1.9 nM | Ki (WT-ER (ERα) [2]): 0.19 ± 0.05 nM | Ki (WT-ER (ERα) [3]): 5.2 ± 1.16 nM
Compound: C[C@@H]1Cc2c([nH]c3ccccc23)[C@@H](c2c(F)cc(/C=C/C(=O)O)cc2F)N1CC(C)(C)F [AZD 9496]
